Results from patent publication US20110059105A1.

Protein sequences, listed by entry. Tags and fused reporters are not part of them. Lines headed by an entry give the natural chain unless they say otherwise; changes in a name come on top.
UniProt P14753: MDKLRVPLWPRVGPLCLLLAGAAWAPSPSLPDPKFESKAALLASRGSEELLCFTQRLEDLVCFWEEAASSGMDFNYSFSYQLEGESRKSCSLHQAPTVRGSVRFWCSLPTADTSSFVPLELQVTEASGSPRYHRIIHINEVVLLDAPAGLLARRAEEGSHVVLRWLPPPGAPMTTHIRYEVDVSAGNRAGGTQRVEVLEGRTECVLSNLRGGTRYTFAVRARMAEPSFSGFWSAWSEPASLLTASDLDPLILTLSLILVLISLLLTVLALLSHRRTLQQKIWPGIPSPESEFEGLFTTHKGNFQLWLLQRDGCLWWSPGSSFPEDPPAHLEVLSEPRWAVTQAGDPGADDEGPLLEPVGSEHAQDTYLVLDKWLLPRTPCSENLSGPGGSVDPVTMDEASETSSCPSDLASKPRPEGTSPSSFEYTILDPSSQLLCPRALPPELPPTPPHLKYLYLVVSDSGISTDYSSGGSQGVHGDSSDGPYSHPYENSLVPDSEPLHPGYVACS

Target: Tie1-EpoR chimeric receptor on Ba/F3 cells (extracellular domain of human Tie1 fused with the transmembrane and cytoplasmic domains of the mouse erythropoietin receptor) (human; mouse) (UniProt P14753)
Experiment: cell-based or functional assay

| Average MTT activity in BaF3 cell assay, treatment E3 + PA1 | Average MTT activity in BaF3 cell assay, treatment E3 + PA10 | Substance |
| --- | --- | --- |
| 0.6 |  | P-A1 IgG1 (isolate p-A1) (antibody) |
|  | 0.65 | P-A10 IgG1 (isolate p-A10) (antibody) |
